Earlier results in US20030109678A1, “Methods and means for regulation of gene expression” (priority 2000, published 2003).

By UniProt entry, the sequences of proteins in these tests, tags left out.
UniProt P03372, whole entry G521R: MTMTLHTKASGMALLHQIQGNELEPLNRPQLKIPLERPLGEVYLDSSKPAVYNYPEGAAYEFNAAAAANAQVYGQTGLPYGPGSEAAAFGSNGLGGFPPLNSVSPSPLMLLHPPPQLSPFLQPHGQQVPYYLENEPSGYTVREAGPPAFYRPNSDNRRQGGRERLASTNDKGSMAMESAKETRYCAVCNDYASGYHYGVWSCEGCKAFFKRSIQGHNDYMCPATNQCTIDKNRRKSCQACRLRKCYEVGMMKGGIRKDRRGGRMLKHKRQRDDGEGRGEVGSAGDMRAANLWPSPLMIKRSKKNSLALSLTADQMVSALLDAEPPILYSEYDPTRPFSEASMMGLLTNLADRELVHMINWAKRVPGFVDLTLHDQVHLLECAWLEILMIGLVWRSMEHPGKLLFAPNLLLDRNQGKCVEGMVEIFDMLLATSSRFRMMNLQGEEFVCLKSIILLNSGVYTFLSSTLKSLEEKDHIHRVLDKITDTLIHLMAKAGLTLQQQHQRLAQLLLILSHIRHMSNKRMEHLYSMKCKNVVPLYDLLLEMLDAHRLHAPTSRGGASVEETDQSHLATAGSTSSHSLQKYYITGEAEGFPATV

Target: mutated form of the human estrogen receptor (ER), G521R mutation (Homo sapiens, UniProt P03372, G521R)

binding by G521R ER: efficiently binds
SMILES: O=C(c1ccc(OCN2CCCCC2)cc1)c1c(-c2ccc(O)cc2)sc2cc(O)ccc12 [raloxifen]
